Among the data in US7208311B2, “Catalytic domain of ADAM33 and methods of use thereof” (Schering Corporation, priority 2002, dated 2007) are Ki values, retold here.

Sequences of proteins named here, by UniProt entry; tags and fusion partners are left off. Residues count along the entry.
UniProt Q9BZ11, 204-409 limits assumed: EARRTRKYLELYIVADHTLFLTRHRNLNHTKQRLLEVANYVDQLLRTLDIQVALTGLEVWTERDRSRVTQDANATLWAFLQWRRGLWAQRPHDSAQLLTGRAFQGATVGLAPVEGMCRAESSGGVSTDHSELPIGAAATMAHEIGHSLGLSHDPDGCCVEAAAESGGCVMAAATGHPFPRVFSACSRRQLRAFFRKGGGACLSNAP

This assay addresses ADAM33 (Homo sapiens, UniProt Q9BZ11). Kind of assay: HPLC inhibition assay, ADAM33cat with KL-1 peptide substrate. The settings on record: ADAM33cat 80 nM, KL-1 peptide 100 μM, 2 h RT. Here is the method:
The inhibition dissociation constants (Ki) for inhibitors were determined as follows: an HPLC assay was performed in the presence or absence of inhibitors for 2 h at RT using ADAM33cat (80 nM) and KL-1 peptide substrate (100 μM). For testing tissue inhibitor of metalloproteinases (TIMPs), ADAM33 and human TIMPs were pre-incubated for 1 h at RT. […] Initial velocities were calculated by dividing cleaved product over reaction time. The initial velocities were plotted as a function of inhibitor concentration. For tight binding inhibitors (IK682, TIMP-3), the apparent inhibitor dissociation constants (Ki app values) were calculated by fitting the curve to the following modified Morrison's equation: vi=vo{[(Eo−Io−Ki^app)^2+4 Ki^appEo]^1/2+(Eo−IoKI^app)}/2Eo where Ki^app=Ki(1+S/Km), vo is the uninhibited initial velocity, vi is the initial velocity in the presence of inhibitor at any given inhibitor concentration Io, and Eo is initial enzyme concentration. When the substrate concentration S<<Km, Ki^app is approximately equal to Ki.

For orientation: Ki means a measure of affinity in units of concentration, obtained from inhibition or displacement. The low end stands for tighter binding, the high end for weaker binding.

Take `Cc1cc(COc2ccc([C@]3(C)CCN([C@H](C)C(=O)NO)C3=O)cc2)c2ccccc2n1`: the inhibition constant Ki worked out at 0.023 µM.
